Tested on: HIV p24 antigen in latently infected CD4 T-cell cultures
Experiment: Flow cytometry analysis of p24 expression in the in vitro latency model
Settings: 3.0 µM VOR, 48 hours, live cell gate

O=C(CCCCCCC(=O)Nc1ccccc1)NO [VOR, suberoylanilide hydroxamic acid]
cells expressing p24 antigen: approximately 4.4% | cells expressing p24 antigen (listed as SAHA): 4.4%

— publication PMC3983056 (PLoS Pathogens, 2014)
